Data published in patent US20240239813A1, “KRAS INHIBITORS AND PHARMACEUTICAL USES THEREOF” (RISEN (SUZHOU) PHARMA TECH CO., LTD., priority 2022, published 2024).

Sequences of proteins named here, by UniProt entry; tags and fusion partners are left off. Residues count along the entry.
UniProt P01116, 1-188 isoform 2 G12D limits assumed: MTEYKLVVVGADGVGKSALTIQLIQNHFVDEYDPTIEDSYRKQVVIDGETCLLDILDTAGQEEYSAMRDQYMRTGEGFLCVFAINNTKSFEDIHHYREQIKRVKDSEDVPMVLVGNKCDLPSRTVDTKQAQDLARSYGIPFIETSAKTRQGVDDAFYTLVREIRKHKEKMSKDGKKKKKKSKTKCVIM

Target: His-tagged Human KRAS^G12D (Homo sapiens (Human), UniProt P01116, G12D)
Experiment: HTRF KRAS G12D GTP binding assay
Conditions: read-out: IC50 for binding to KRAS^G12D, displacement of GTP-Red tracer

C#Cc1c(F)ccc2cc(O)cc(-c3ncc4c(N5CCC=CCC5)nc(OCC5(CN(C)C)CC5)nc4c3F)c12
IC50: > 1000 nM

CN(C)CC1(COc2nc(N3CCC[C@@](C)(O)C3)c3cnc(-c4cc(N)cc(Cl)c4C(F)(F)F)c(F)c3n2)CC1
IC50: 385 nM
